# Results as given in US5567692A, “9-[(substituted glycyl) amido)]-6-demethyl-6-deoxytetracyclines” (priority 1995, dated 1996).
# Counter-ions that a name gives are not always drawn.
# Test system: S30 extract from derivative of MRE600 containing the tetM determinant, TetM modified ribosomes
# Test: E. coli in vitro protein translation system, Tet M S30
# Settings: for inhibition of protein synthesis occurring on tetM modified ribosomes (in words): coupled transcription and translation system
SMILES,% Inhibition Tet M S30 (Conc. 0.06 mg/ml) [%],% Inhibition Tet M S30 (Conc. 1.0 mg/ml) [%],inhibition of protein synthesis occurring on tetM modified ribosomes (in words)
"CN(C)CC(=O)Nc1ccc2c(c1O)C(=O)C1=C(O)[C@]3(O)C(=O)C(C(N)=O)=C(O)[C@@H](N(C)C)C3CC1C2 (stereo partly drawn) [CC, [4S-(4alpha,12aalpha)]-4-(Dimethylamino)-9-[[(dimethylamino)acetyl]amino]-1,4,4a,5,5a,6,11,12a-octahydro-3,10,12,12a-tetrahydroxy-1,11-dioxo-2-naphthacenecarboxamide dihydrochloride]",82,99,effective
"CCCCNCC(=O)Nc1ccc2c(c1O)C(=O)C1=C(O)[C@]3(O)C(=O)C(C(N)=O)=C(O)[C@@H](N(C)C)C3CC1C2 (stereo partly drawn) [H, [4S-(4alpha,12aalpha)]-9-[[(Butylamino)acetyl]amino]-4-(dimethylamino)-1,4,4a,5,5a,6,11,12a-octahydro-3,10,12,12a-tetrahydroxy-1,11-dioxo-2-naphthacenecarboxamide dihydrochloride]",72,98,
"CN(C)c1ccc(O)c2c1C[C@H]1C[C@H]3[C@H](N(C)C)C(O)=C(C(N)=O)C(=O)[C@@]3(O)C(O)=C1C2=O [U, Minocycline, reference compound]",0,68,not effective
